The results in this text go back to IntAct's records for PubMed 24596249.

B1: Transducin-like enhancer protein 1 (Homo sapiens), Q04724 (parent)
chain: MFPQSRHPTPHQAAGQPFKFTIPESLDRIKEEFQFLQAQYHSLKLECEKLASEKTEMQRHYVMYYEMSYGLNIEMHKQTEIAKRLNTICAQVIPFLSQEHQQQVAQAVERAKQVTMAELNAIIGQQQLQAQHLSHGHGPPVPLTPHPSGLQPPGIPPLGGSAGLLALSSALSGQSHLAIKDDKKHHDAEHHRDREPGTSNSLLVPDSLRGTDKRRNGPEFSNDIKKRKVDDKDSSHYDSDGDKSDDNLVVDVSNEDPSSPRASPAHSPRENGIDKNRLLKKDASSSPASTASSASSTSLKSKEMSLHEKASTPVLKSSTPTPRSDMPTPGTSATPGLRPGLGKPPAIDPLVNQAAAGLRTPLAVPGPYPAPFGMVPHAGMNGELTSPGAAYASLHNMSPQMSAAAAAAAVVAYGRSPMVGFDPPPHMRVPTIPPNLAGIPGGKPAYSFHVTADGQMQPVPFPPDALIGPGIPRHARQINTLNHGEVVCAVTISNPTRHVYTGGKGCVKVWDISHPGNKSPVSQLDCLNRDNYIRSCKLLPDGCTLIVGGEASTLSIWDLAAPTPRIKAELTSSAPACYALAISPDSKVCFSCCSDGNIAVWDLHNQTLVRQFQGHTDGASCIDISNDGTKLWTGGLDNTVRSWDLREGRQLQQHDFTSQIFSLGYCPTGEWLAVGMESSNVEVLHVNKPDKYQLHLHESCVLSLKFAYCGKWFVSTGKDNLLNAWRTPYGASIFQSKESSSVLSCDISVDDKYIVTGSGDKKATVYEVIY

The variants in this test derive from B1. The note with it: with h4_human H4C16.
For the variant L26D;I29D, the “effect of a mutation on the interaction” value was “decreasing interaction”.
